Reference: US20260258087A1, “PHARMACEUTICAL COMPOSITION FOR PREVENTING OR TREATING HEPATITIS B” (GWANGJU INSTITUTE OF SCIENCE AND TECHNOLOGY, priority 2022, published 2026)

Assays:
BSC-1 cells = test: MTS cell-viability assay, BSC-1; assay type: cell-based, monkey; settings: BSC-1, 200 μM
HeLa cells = test: MTS cell-viability assay, HeLa; assay type: cell-based, human

Cyclosporine A [CsA, reference compound]
percentage cell viability at 200 μM (BSC-1 cells): 62.4 ± 0.4% | percentage cell viability at 100 μM (HeLa cells): 82 ± 5%
